Experimental data from US20040210047A1, “Methallyl sucroses and their epoxy derivatives” (priority 2003, published 2004).

How the values were obtained:
[1] = tested on: Salmonella Typhimurium TA-98; test: Modified Maron-Ames test, strain TA-98; details: tester strain TA-98, all concentrations
Method: Serial dilutions (100 fold) were made with DMSO to obtain samples with dilution factors of 10^−3, 10^−5, and 10^−7. The assays were performed according to the modified methods of Maron and Ames (Maron D. R. and Ames, B. N. Mutation Research, 1980, Vol. 113, 173-215) using two strains of Salmonella Typhimurium TA-98 and TA-100, with and without metabolic activation of the substrate. The male rat microsomal homogenate S-9 was used to effect metabolic activation of the substrate. TA-98 and TA-100 were cultured in Oxoid Nutrient Broth No.2 at 37° C. for 16 hours using a gyratory shaker (200-250 rpm).
(§1) Compounds were assayed after the bacteria tested positive for the viability-related criteria above. Two mL top agar was placed in sterile culture tubes and kept at ˜40° C. in a water bath. Samples (100 μL) were placed in each tube (3 tubes per sample) and 100 μL of either strain TA-98 or TA-100 was added. When required, the S-9 homogenate (500 μL) was then added. The tubes were mixed and poured into minimal glucose agar plates. The plates were left at room temperature until the top agar solidified. Then, they were inverted and incubated at 37° C. for 48 hours. After incubation, revertant colonies were counted. Samples that presented greater than 2 times the number of revertant colonies were considered mutagenic. (See FIGS. 9(a) through (f)).

[2] = tested on: Salmonella Typhimurium TA-100; test: Modified Maron-Ames test, strain TA-100
Method: […] The assays were performed according to the modified methods of Maron and Ames (Maron D. R. and Ames, B. N. Mutation Research, 1980, Vol. 113, 173-215) using two strains of Salmonella Typhimurium TA-98 and TA-100, with and without metabolic activation of the substrate. The male rat microsomal homogenate S-9 was used to effect metabolic activation of the substrate. TA-98 and TA-100 were cultured in Oxoid Nutrient Broth No.2 at 37° C. for 16 hours using a gyratory shaker (200-250 rpm).
as §1

## epoxymethallyl sucrose [EMS]
[1]
  cytotoxicity and mutagenicity, overall conclusion: neither cytotoxic nor mutagenic
[2]; Maron-Ames tests, 10 mg/mL DMSO, strain not stated
  cytotoxicity relative to DGEBA: about one-tenth
[2]; dilution factors beyond 10^−1
  cytotoxicity and mutagenicity: neither cytotoxic nor mutagenic
[2]; stated advantage over the state of the art, strain not stated
  cytotoxicity and mutagenicity, summary statement: negligible cytotoxicity and mutagenicity
